{
  "source": "ChEMBL document CHEMBL3272293",
  "about": "“Use of distribution coefficients in quantitative structure-activity relationships” (J Med Chem, 1977)",
  "assay_type_in_all_cases": "functional",
  "key": {"[1]": {"test": "Uncoupling of oxidative phosphorylation in rat liver mitochondria at pH 5 relative to control"}, "[2]": {"test": "Uncoupling of oxidative phosphorylation in rat liver mitochondria at pH 6 relative to control"}, "[3]": {"test": "Uncoupling of oxidative phosphorylation in rat liver mitochondria at pH 7 relative to control"}, "[4]": {"test": "Uncoupling of oxidative phosphorylation in rat liver mitochondria at pH 8 relative to control"}},
  "data": [
    {"molecule": "O=[N+]([O-])c1cccc([N+](=O)[O-])c1O", "values": [
      {"measurement": "fold change (FC)", "setting": "[1]", "result": 4.77},
      {"measurement": "fold change (FC)", "setting": "[2]", "result": 4.22},
      {"measurement": "fold change (FC)", "setting": "[3]", "result": 3.68},
      {"measurement": "fold change (FC)", "setting": "[4]", "result": 3.12}
    ]}
  ]
}
